Experimental data published in PMC5425475 (Frontiers in Systems Neuroscience, 2017).

Sequences of proteins named here, by UniProt entry; tags and fusion partners are left off.
UniProt Q8INQ6, entry or part of it: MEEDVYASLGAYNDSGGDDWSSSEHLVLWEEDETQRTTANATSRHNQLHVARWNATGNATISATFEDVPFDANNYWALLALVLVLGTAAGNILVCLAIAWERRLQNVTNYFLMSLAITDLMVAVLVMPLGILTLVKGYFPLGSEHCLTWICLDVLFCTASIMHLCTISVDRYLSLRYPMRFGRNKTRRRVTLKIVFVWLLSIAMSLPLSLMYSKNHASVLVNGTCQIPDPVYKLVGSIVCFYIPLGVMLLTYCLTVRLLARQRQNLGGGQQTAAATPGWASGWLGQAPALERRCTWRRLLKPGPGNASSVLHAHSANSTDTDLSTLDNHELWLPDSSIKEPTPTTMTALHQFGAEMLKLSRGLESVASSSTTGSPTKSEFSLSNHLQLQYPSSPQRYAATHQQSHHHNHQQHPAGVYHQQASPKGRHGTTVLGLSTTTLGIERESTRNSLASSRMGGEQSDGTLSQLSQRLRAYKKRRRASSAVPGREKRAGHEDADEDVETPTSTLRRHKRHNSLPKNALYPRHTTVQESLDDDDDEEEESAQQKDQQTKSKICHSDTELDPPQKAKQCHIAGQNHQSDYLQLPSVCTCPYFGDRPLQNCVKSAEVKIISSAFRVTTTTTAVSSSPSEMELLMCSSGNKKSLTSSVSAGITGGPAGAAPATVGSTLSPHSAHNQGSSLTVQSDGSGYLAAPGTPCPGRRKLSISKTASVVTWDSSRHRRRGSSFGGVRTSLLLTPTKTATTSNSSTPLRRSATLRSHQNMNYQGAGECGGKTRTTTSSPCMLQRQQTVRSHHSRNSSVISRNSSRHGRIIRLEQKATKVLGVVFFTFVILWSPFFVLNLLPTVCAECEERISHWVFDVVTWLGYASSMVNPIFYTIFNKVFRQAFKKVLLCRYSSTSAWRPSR

Molecular target: Dm5-HT2B (Drosophila melanogaster, UniProt Q8INQ6)
Experiment: Ca2+ fluorimetry (Fluo-4), antagonists on serotonin-stimulated Dm5-HT2B-expressing HEK 293 cells
Type: cell-based
Details: for Maximal inhibition: relative efficacy, signal with 10^-7 M serotonin = 100%
Method: The ability of the Dm5-HT2B-HA receptor (hereafter referred to as Dm5-HT2B) to activate Gq proteins was assessed by monitoring changes in [Ca^2+]i with the Ca^2+-sensitive fluorescent dye Fluo-4 (Invitrogen). Non-transfected HEK 293 cells and cells expressing Dm5-HT2B were grown in minimal essential medium (MEM + GlutaMAX^TMI (Gibco/ThermoFisher Scientific, Darmstadt, Germany) containing 2% (w/v) Utroser^TM G (Pall, Dreieich, Germany), 1 × non-essential amino acids and 1 × antibiotics/antimycotics) in 96-well plates to a density of ∼3 × 10^4 cells per well. In this format, each vertical row (=8 wells) of the 96-well plate is incubated with the same ligand concentration. Cells were loaded at room temperature with Fluo-4 as described earlier ([Thamm et al., 2013]; [Blankenburg et al., 2015]) in extracellular solution [ES = in mM: 120 NaCl, 5 KCl, 2 MgCl2, 2 CaCl2, 10 HEPES, 10 Glucose, pH 7.4 (NaOH)]. Plates were transferred into a fluorescence reader (FLUOstar Galaxy/Optima; BMG Labtech, Offenburg, Germany) to monitor Fluo-4 fluorescence. The excitation wavelength was 485 nm, and fluorescence emission was detected at 520 nm. Various concentrations of biogenic amines and synthetic receptor ligands were added, once Fluo-4 fluorescence had reached a stable value in each well. The changes in Fluo-4 fluorescence were recorded automatically. Concentration-response curves for putative agonists/antagonists were established in at least two independent experiments with octuplicate determinations (s.a.) per data point.
Next, we examined the ability of potential receptor antagonists for impairing Dm5-HT2B activity.

Question: For CN1CCC(=C2c3ccccc3C=Cc3ccccc32)CC1 [Cyproheptadine, cyproheptadine], which Maximal inhibition is on record?
Answer: Its Maximal inhibition is 35%.

Question: For CN1CCN2c3ccccc3Cc3ccccc3C2C1 (stereo not drawn) [Mianserin, mianserin], which Maximal inhibition is on record?
Answer: The Maximal inhibition was 75%.

Question: What about the “serotonin-evoked Ca2+ response reduced to % of control measurements without antagonist” value (residual signal at maximal inhibition) of the same compound?
Answer: The value was 25%.
